# How the values were obtained:
# [1] = Intestinal absorption in vitro by the everted rat gut sac model; assay type: in vitro ADME; details: for K a / P (%) percentage of absorption / P app: medium concentration (SA5 0.050, SA6 0.086, DISS 0.198 mg/ml)
"increase of Rho123 absorption by combination with TS versus Rho123 alone (P-glycoprotein (P-gp); TS 1.58 mg/ml, at 180 min, P < 0.01)","cumulative amount per intestinal area, coincubated with TS versus monomers alone ([1]; TS 1.58 mg/ml, SA5 0.050, SA6 0.086, DISS 0.198 mg/ml, at 180 min, P < 0.01) [times]","change of absorption in gut sacs after treatment with PT ([1]; coincubated with PT 0.012 mg/ml, SA5 0.050, SA6 0.086, DISS 0.198 mg/ml, 180 min)","K a ([1]; in PRE, 180 min, n = 5)","P (%) percentage of absorption ([1]; in PRE, 180 min, n = 5) [%]","P app ([1]; in PRE, 180 min, n = 5)","K a ([1]; monomer, n = 5)","P (%) percentage of absorption ([1]; monomer, n = 5) [%]","P app ([1]; monomer, n = 5)","increase of cumulative absorption amount per area by combination with sodium caprate (SC) ([1]; sodium caprate 1%, SA5 0.050, SA6 0.086, DISS 0.198 mg/ml, at 180 min, P < 0.01) [fold]","absorption rate (Ka) with sodium caprate ([1]; sodium caprate 1%, SA6 0.086, DISS 0.198 mg/ml, n = 5) [μg·cm^2·min]",P-gp substrate status (P-glycoprotein (P-gp); concluded from verapamil coincubation),"influence of verapamil on transport (P-glycoprotein (P-gp); verapamil 0.1 mmol/L, DISS 0.198 mg/ml)",SMILES
about 6.35 fold,,,,,,,,,,,,,"COC(=O)c1ccccc1-c1c2ccc(=N)cc-2oc2cc(N)ccc12 [Rho123, Rhodamine 123, reference compound]"
,2.18,no significant increase or decrease,0.075 ± 0.0013 ^∗∗ μg·cm^−2·min^−1,2.71 ± 0.12,0.63 ± 0.011 ×10^−5cm/s,0.032 ± 0.0015∗∗ μg·cm^−2·min^−1,1.15 ± 0.04,0.27 ± 0.013 ×10^−5cm/min,~2.00,0.069 ± 0.0031,not a substrate for P-gp,no significant influence,"COc1cc(/C=C/C(=O)OC[C@H]2O[C@H](O[C@]3(CO)O[C@H](CO)[C@@H](O)[C@@H]3OC(=O)/C=C/c3cc(OC)c(O)c(OC)c3)[C@H](O)[C@@H](O)[C@@H]2O)cc(OC)c1O [DISS, 3,6′-disinapoyl sucrose]"

# Source: PMC6633864, “Intestinal Absorption Profile of Three Polygala Oligosaccharide Esters in Polygalae Radix and the Effects of Other Components in Polygalae Radix on Their Absorption” (Evidence-based Complementary and Alternative Medicine : eCAM, 2019)
